This is a selection; strong and weak results do not stand in their true shares. Active and inactive are the calls of the source.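 Rule for the calls: active = initial fluorescence not abnormally high and integrated response B-score, plate-corrected, over 3 SD above library mean; inactive = the rest.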
biological target: High affinity choline transporter 1 (Homo sapiens) (UniProt Q9GZV3); test: allosteric activators of human choline transporter – cell-based, membrane potential dye, choline EC20, primary screen (AID 488977); conditions: CHT-expressing cells, at 10 µM, active compounds read high, LV-AA mutant CHT in HEK293 cells

Amino acid sequences for entries named in this document (tags omitted). A change or cut given only in a name is not applied to a line headed by its entry.
UniProt Q9GZV3: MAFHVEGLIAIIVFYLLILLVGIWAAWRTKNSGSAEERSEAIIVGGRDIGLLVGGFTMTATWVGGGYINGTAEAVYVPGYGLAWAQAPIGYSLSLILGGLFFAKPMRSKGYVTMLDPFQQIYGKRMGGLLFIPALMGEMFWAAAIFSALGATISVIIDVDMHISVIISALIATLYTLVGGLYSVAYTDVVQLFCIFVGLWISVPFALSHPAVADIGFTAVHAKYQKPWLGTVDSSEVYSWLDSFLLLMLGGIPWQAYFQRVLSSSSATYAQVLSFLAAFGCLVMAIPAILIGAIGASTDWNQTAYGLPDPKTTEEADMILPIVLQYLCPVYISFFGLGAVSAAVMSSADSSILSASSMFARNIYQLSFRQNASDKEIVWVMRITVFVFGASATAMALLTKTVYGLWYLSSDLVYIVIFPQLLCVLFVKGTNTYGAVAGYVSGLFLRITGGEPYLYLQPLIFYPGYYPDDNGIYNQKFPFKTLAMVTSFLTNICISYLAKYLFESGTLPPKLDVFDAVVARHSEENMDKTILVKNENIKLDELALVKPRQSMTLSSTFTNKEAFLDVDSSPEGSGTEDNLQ

Row | Structure (SMILES) | B-score
1 | NC(=O)c1cc([N+](=O)[O-])cc([N+](=O)[O-])c1N | inactive: 0
2 | CCc1nc2c(n1)c1c(non1O)c1c2no[n+]1[O-] | inactive: 0
3 | CC(Cc1ccc(O)cc1)NCC(O)c1cc(O)cc(O)c1 (stereo not drawn) | inactive: 0

— PubChem BioAssay AID488977 (Johns Hopkins Ion Channel Center, 2010)
